The values below are quoted from earlier work in US20240158516A1, “METHODS FOR THE TREATMENT OF THYROID EYE DISEASE” (Horizon Therapeutics Ireland DAC, priority 2021, published 2024).

The conditions of the data set: in vivo, iv; cited from earlier work.

On to Ganitumab, for which the T1/2 result is given as “IV; 6-9 days”.
